Source: US20160271063A1, “STERILE S-ADENOSYL METHIONINE WITH A HIGH CONTENT OF ACTIVE ISOMER FOR INJECTABLE SOLUTIONS, AND PROCEDURE FOR OBTAINING IT” (GNOSIS S.P.A., priority 2013, published 2016)

Legend:
Type in all cases: physicochemical
[1] = Particle size (laser particle-size distribution analysis)
[2] = S,S isomer content by HPLC (area of active isomer to sum of both isomers)
Protocol: The S-adenosyl methionine of the invention preferably has a water content below 2% by weight and an active enantiomer content exceeding 75% of the total SAMe. The enantiomer content is determined by the percentage of the area of active isomer to the sum of the area of both isomers in the HPLC analysis.

[3] = Residual humidity of the powder; settings: Test in Mobile Minor unit; IN/OUT temperature differs per test
[4] = Test in Mobile Minor unit, IN/OUT temperature differs per test

SAMe sulphate and p-toluenesulphonate [Example 6]
particle size [1]: less than 50 microns
Particle size D50μ [1, 4]: 8 μ
enantiomeric ratio, S,S isomer [2]: exceeding 80%
S,S Stereoisomer % [2, 4]: 71.16%
Humidity % [3]: 2.07%
